Results from patent US20040141914A1, “Cancerous disease modifying antibodies” (priority 2003, published 2004).

Tests used:
HT-29 = test: Live/Dead cytotoxicity assay, hybridoma supernatant; settings: HT-29 colon cancer cells, 5 days treatment
SW620 = test: as above; settings: SW620 colon cancer cells, 5 days treatment

In the case of sodium azide, the “Cytotoxicity (%) HT-29 Average” value (HT-29) is reported as 61% and the “Cytotoxicity (%) SW620 Average” value (SW620) is reported as 68%.
